{"source": "patent US6258839A", "about": "“Isolation of naturally occuring isoflavanone and some clinical uses thereof” (priority 1997, dated 2001)", "key": {"[1]": {"test_system": "HIV-1 infected cells (p24 production)", "assay": "extended time course assay, p24 and XTT"}, "[2]": {"test_system": "Mono/MAC's", "assay": "growth inhibition of Mono/MAC's in anti-HIV test"}}}
{"compound": "COc1c(O)cc(C2COc3cc(O)cc(O)c3C2=O)cc1CC=C(C)C", "note": "(racemic) [PMZ-1]", "values": [{"measurement": "effectiveness when added after DNA synthesis", "setting": "[1]; added after infection", "value": "effective even after DNA synthesis has occurred"}, {"measurement": "XTT cytoprotection and inhibition of p24 production", "setting": "[1]; added after reverse transcriptase has been completed", "value": "observed"}, {"measurement": "duration of cell protection after administration", "setting": "[1]; p24 production, compared with Nevirapine", "value": "more than 48 hours"}, {"measurement": "IC50", "setting": "[2]", "value": "> 200", "unit": "µM"}]}
